B1: Hu63-13: humanized antibody of mAb63: h63VH5 + h63VL1; heavy chain SEQ ID NO: 80, light chain SEQ ID NO: 81 (antibody)
heavy: EVQLVQSGAEVKKPGASVKVSCKASGYTFTDFYMNWVRQAPGQGLEWMGDIFPKSGNTDYNRKFKDRVTMTRDTSTSTVYMELSSLRSEDTAVYYCARSGYGNYVFDYWGQGTLVTVSSASTKGPSVFPLAPSSKSTSGGTAALGCLVKDYFPEPVTVSWNSGALTSGVHTFPAVLQSSGLYSLSSVVTVPSSSLGTQTYICNVNHKPSNTKVDKKV[left out - human IgG1 Fc]
light: DIQMTQSPSSLSASVGDRVTITCRTSQDINIYLNWYQQKPGKAPKLLIYYRSGLLSGVPSRFSGSGSGTDFTLTISSLQPEDFATYYCQQGNTLPPTFGGGTKVEIKRTVAAPSVFIFPPSDEQLKSGTASVVCLLNNFYPREAKVQWKVDNALQSGNSQESVTEQDSKDSTYSLSSTLTLSKADYEKHKVYACEVTHQGLSSPVTKSFNRGEC
modifications: Synthetic Sequence_Heavy chain sequence of Hu63-13; Synthetic Sequence_Light chain sequence of Hu63-13
B2: Hu67-14: humanized antibody of mAb67: h67VH3 + h67VL4; heavy chain SEQ ID NO: 84, light chain SEQ ID NO: 85 (antibody)
heavy: EVQLVQSGAEVKKPGESLKISCKGSGYSFTDYHMNWVKQMPGKGLEWMGDINPDIGGTSYNQNFKGKVTISVDKSISTAYLQWSSLKASDTAMYYCARWDFDSFANWGQGTLVTVSSASTKGPSVFPLAPSSKSTSGGTAALGCLVKDYFPEPVTVSWNSGALTSGVHTFPAVLQSSGLYSLSSVVTVPSSSLGTQTYICNVNHKPSNTKVDKKV[left out - human IgG1 Fc]
light: DIQMTQSPSSLSASVGDRVTITCRASESVSIIGTNLIHWYQQKPGKAPKLLIYHASNLETGVPSRFSGSGSGTDFTLTISSLQPEDFATYYCLQSRKIPYTFGGGTKVEIKRTVAAPSVFIFPPSDEQLKSGTASVVCLLNNFYPREAKVQWKVDNALQSGNSQESVTEQDSKDSTYSLSSTLTLSKADYEKHKVYACEVTHQGLSSPVTKSFNRGEC
modifications: Synthetic Sequence_Heavy chain sequence of Hu67-14; Synthetic Sequence_Light chain sequence of Hu67-14
B3: Hu103-32: humanized antibody of mAb103: h103VH4 + h103VL8; heavy chain SEQ ID NO: 86, light chain SEQ ID NO: 87 (antibody)
heavy: EVQLVQSGSELKKPGASVKVSCKASGYTFTTYGVIWVRQAPGQGLEWMGWINTYSGVPTYASDFKGRFVFSLDTSVSTAYLQISSLKAEDTAVYYCARKKTLTTVTPWFAYWGQGTLVTVSSASTKGPSVFPLAPSSKSTSGGTAALGCLVKDYFPEPVTVSWNSGALTSGVHTFPAVLQSSGLYSLSSVVTVPSSSLGTQTYICNVNHKPSNTKVDKKV[left out - human IgG1 Fc]
light: ELVLTQSPSASASLGASVKLTCTLSSQHSTYTIEWYQQQPEKGPRYVMELKKDGSHSTGEGIPDRFSGSSSGAERYLTISSLQSEDEADYYCGVGNTIKEQFVYVFGGGTKLTVLGQPKANPTVTLFPPSSEELQANKATLVCLISDFYPGAVTVAWKADGSPVKAGVETTKPSKQSNNKYAASSYLSLTPEQWKSHRSYSCQVTHEGSTVEKTVAPTECS
modifications: Synthetic Sequence_Heavy chain sequence of Hu103-32; Synthetic Sequence_Light chain sequence of Hu103-32
B4: Hu47-14: humanized antibody of mAb47: h47VH4 + h47VL2; heavy chain SEQ ID NO: 82, light chain SEQ ID NO: 83 (antibody)
heavy: EVQLVQSGSELKKPGASVKVSCKASGYTFTTYGMSWVKQAPGQGLKWMGWINTYSGVPTYASDFKGRFVFSLDTSVSTAYLQISSLKAEDTAVYYCARRGNYGRWDFDVWGQGTTVTVSSASTKGPSVFPLAPSSKSTSGGTAALGCLVKDYFPEPVTVSWNSGALTSGVHTFPAVLQSSGLYSLSSVVTVPSSSLGTQTYICNVNHKPSNTKVDKKV[left out - human IgG1 Fc]
light: EIVLTQSPDFQSVTPKEKVTITCSVSSTISSSNLHWYQQKPDQSPKPLIYGTSNLASGVPSRFSGSGSGTDYTLTINSLEAEDAATYYCQQWSIYPLTFGQGTKLEIKRTVAAPSVFIFPPSDEQLKSGTASVVCLLNNFYPREAKVQWKVDNALQSGNSQESVTEQDSKDSTYSLSSTLTLSKADYEKHKVYACEVTHQGLSSPVTKSFNRGEC
modifications: Synthetic Sequence_Heavy chain sequence of Hu47-14; Synthetic Sequence_Light chain sequence of Hu47-14

In the first test the target is T1, human CEACAM1 expressed on CHO cell surface (CEACAM1-CHO) (Homo sapiens, UniProt P13688).
T1 construct: expressed in transfected cells; host or cells: CHO cells
T1 sequence (P13688 35-526): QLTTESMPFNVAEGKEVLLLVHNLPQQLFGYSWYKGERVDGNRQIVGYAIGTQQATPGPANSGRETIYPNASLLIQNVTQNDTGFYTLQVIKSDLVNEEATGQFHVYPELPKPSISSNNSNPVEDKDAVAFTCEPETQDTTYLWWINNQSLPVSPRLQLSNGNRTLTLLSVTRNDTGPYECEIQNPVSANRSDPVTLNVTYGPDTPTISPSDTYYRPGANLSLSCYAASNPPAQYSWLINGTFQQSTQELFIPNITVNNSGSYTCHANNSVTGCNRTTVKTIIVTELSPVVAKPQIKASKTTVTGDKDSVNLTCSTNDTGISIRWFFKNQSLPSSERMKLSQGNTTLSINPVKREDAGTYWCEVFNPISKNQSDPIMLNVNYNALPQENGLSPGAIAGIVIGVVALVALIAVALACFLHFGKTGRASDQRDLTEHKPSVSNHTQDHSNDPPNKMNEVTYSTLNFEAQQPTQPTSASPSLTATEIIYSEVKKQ
The test can be described thus: FACS binding assay, CEACAM1-CHO cells. The settings on record: Table 17, humanized antibodies and controls. On the technique in general: In flow cytometry, cells or beads pass a laser one at a time.
With B1, the “EC50 (nM) CEACAM1-CHO” value is recorded as “No binding”.
On the same count and under the same terms, to B2 belongs “No binding”; to B3, “No binding”.
The same measure, in the same setting: to B4 belongs “No binding”.

A further test has as its target T2, human soluble CEA (Homo sapiens, UniProt P06731).
T2 construct: His6 (C); made in house; host or cells: 293E cells
T2 sequence (P06731 with tags, fused parts or gaps): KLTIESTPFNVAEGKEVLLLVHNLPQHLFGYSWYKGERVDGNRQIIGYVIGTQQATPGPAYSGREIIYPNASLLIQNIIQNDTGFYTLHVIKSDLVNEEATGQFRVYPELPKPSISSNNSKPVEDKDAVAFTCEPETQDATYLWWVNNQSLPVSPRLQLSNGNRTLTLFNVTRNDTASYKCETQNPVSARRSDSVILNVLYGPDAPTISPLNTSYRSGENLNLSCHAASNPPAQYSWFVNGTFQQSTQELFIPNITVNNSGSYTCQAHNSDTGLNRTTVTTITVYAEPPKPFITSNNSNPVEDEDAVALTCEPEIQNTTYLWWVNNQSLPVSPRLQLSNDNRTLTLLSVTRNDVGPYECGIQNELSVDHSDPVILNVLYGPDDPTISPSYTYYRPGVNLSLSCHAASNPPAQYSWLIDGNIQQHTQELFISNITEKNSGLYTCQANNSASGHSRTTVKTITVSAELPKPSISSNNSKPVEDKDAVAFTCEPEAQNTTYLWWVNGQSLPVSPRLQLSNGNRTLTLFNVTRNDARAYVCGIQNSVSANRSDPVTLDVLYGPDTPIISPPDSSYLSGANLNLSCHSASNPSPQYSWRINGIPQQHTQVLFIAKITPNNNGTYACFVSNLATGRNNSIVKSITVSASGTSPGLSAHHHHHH
The experiment in a line: Affinity of antibodies for soluble CEA using Biacore. The test is classed as binding. The settings on record: 1:1 Langmuir. (In general: Surface plasmon resonance follows binding to a sensor surface in real time, without labels.)
For B1, the “ka” value is 29900 M⁻¹ s⁻¹ and the “kd” value worked out at 0.00431 s⁻¹.
Turning to B2, the “ka” value came to 37600 M⁻¹ s⁻¹ and the “kd” value is 0.00859 s⁻¹.
For B3, in that order: 33300 M⁻¹ s⁻¹ and 0.00103 s⁻¹.
The like results for B4 were, in that order, 131000 M⁻¹ s⁻¹ and 0.188 s⁻¹.

The record behind these values is patent publication US12728168B2, “Anti-CEA antibody-exatecan analog conjugate and pharmaceutical use thereof” (JIANGSU HENGRUI MEDICINE CO., LTD., priority 2019, dated 2026).
